# Laboratory results published in ChEMBL document CHEMBL4351003, “Selective Toll-like receptor 7 agonists with novel chromeno[3,4-d]imidazol-4(1H)-one and 2-(trifluoromethyl)quinoline/ quinazoline-4-amine scaffolds” (Eur J Med Chem, 2019).
# Molecular target: T1, Toll-like receptor 7 (Homo sapiens) (UniProt Q9NYK1)
# T1 sequence (whole entry): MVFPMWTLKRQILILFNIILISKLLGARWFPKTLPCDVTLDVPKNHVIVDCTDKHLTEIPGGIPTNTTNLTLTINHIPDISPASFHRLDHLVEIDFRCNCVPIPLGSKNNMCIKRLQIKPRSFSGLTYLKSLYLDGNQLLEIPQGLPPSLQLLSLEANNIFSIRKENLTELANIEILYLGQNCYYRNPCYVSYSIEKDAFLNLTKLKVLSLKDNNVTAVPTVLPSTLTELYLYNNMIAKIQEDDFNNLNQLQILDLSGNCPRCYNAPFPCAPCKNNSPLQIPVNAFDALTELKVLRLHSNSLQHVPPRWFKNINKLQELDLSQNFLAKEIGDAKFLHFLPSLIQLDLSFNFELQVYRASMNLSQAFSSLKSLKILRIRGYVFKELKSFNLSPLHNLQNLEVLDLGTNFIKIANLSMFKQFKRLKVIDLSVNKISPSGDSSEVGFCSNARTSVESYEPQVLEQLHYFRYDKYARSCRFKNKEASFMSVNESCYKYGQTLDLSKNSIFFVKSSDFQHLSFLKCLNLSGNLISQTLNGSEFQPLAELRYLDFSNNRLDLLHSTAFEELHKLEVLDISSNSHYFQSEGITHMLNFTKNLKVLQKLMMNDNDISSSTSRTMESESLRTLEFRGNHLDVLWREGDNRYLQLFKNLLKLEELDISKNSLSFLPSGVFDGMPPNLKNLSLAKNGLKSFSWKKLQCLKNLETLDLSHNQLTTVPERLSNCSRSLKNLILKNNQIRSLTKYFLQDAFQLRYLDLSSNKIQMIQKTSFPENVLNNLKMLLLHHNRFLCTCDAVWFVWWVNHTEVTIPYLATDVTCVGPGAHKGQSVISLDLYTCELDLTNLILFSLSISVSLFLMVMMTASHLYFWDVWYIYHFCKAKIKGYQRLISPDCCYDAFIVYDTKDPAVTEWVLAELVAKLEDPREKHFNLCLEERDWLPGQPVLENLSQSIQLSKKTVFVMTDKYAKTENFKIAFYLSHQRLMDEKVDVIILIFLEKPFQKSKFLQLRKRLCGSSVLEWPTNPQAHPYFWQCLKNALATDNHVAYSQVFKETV
# Test: Antagonist activity at human TLR7 in HEK293 cells cotransfected with SEAP reporter gene assessed as activity of SEAP preincubated for 2 hrs followed by imiquimod addition further incubated for 24 hrs by quanti-blue staining based SEAP reporter gene assay
# Format: cell-based
row,SMILES,Activity
1,O=C(O)CNc1nc(C(F)(F)F)nc2ccccc12,inactive
2,FC(F)(F)c1nc(NCCc2cnc[nH]2)c2ccccc2n1,inactive
3,FC(F)(F)c1nc(Cl)c2ccccc2n1,inactive
4,COc1ccc2oc(=O)c3ncn(CC(C)C)c3c2c1,inactive
5,FC(F)(F)c1nc(NCCN2CCCCC2)c2ccccc2n1,inactive
6,FC(F)(F)c1nc(N2CCOCC2)c2ccccc2n1,inactive
7,Oc1nc(C(F)(F)F)nc2ccccc12,inactive
8,Nc1ccc(CNc2nc(C(F)(F)F)nc3ccccc23)cc1,inactive
9,CN1CCN(c2nc(C(F)(F)F)nc3ccccc23)CC1,inactive
10,CC(C)Cn1cnc2c(=O)oc3ccc([N+](=O)[O-])cc3c21,inactive
11,Nc1nc(C(F)(F)F)nc2ccccc12,inactive
12,CC1CCCN(c2cc(C(F)(F)F)nc3ccccc23)C1 (centres undefined),inactive

# Next, values leading:
row,Activity,SMILES
1,inactive,COCCCn1cnc2c(=O)oc3ccccc3c21
2,inactive,CC(C)Cn1cnc2c(=O)oc3ccc(F)cc3c21
3,inactive,CCn1cnc2c(=O)oc3ccc(F)cc3c21
4,inactive,C=CCn1cnc2c(=O)oc3ccccc3c21
5,inactive,COCCn1cnc2c(=O)oc3ccccc3c21
6,inactive,CCCn1cnc2c(=O)oc3ccccc3c21
7,inactive,CC(C)n1cnc2c(=O)oc3ccccc3c21

# Activity calls are given as the source filed them. The calls are words filed in the database; no cut-off is given here.
